Values of other authors, collected in US6492560B2, “Discrete-length polyethylene glycols” (The University of Washington, priority 1995, dated 2002).

Details: in vivo

PEG-recombinant human interleukin-2: polyethylene glycol-modified recombinant human interleukin-2
circulating half-life: markedly prolonged circulating half-life
